# The list is not random: actives were taken first. Their share in the collection is about 1.3%.
# Yeast UUG start = alters start codon recognition fidelity in yeast; S. cerevisiae UUG-firefly luciferase reporter, luminescence/redox ratio; activity score, % at 18.7 µM; actives 0.13% (n = 350,000);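 active means replicate mean at a twofold rise or more, about +100% in these data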;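 further: firefly luciferase made from a UUG start codon reports start codon fidelity; reporter light over untreated wells divided by growth signal over untreated wells; some hits fall short of that in this replicate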
# E-sel inducer = E-selectin induction on HUVECs; P16581; HUVEC E-selectin immunofluorescence imaging; normalized: neutral wells 0, TNF-alpha wells 100; activation, % at 7.58 µM; 260,000 tested, 0.37% active; AID 686992;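 active means mean E-selectin-positive cell signal at least 10% of the positive control, reached in at least 60% of replicates, without over 20% cell loss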
#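 Assay system: HUVEC, human umbilical vein endothelial cells / Amount: 3,000 HUVEC/well / Controls: TNF-alpha positive control, DMSO neutral control / Compound dosing: single concentration / Medium: EGM-2 over gelatin coat / Evaluation: percent E-selectin-positive cells / Signal: immunofluorescence imaging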
# ARNT-TACC3 inh = disrupts binding between human ARNT and TACC3 | Q9Y6A5 | AlphaScreen His-ARNT PAS-B/GST-TACC3 binding, luminescence; TACC3 fragment carries E629A point mutation | inhibition, % at 9.99 µM | 390,000 tested, 0.66% active | AID 623870;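 active means mean inhibition of replicates at least 50% and at least half of replicates each reaching 50%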;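 further: 0% = complete ARNT plus TACC3 wells and 100% = ARNT alone without TACC3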
# S100A4 inh HTS = blocks human S100A4 binding to myosin IIA peptide; S100A4/TAMRA-MyoIIA peptide fluorescence polarization; inhibition, % at 10.7 µM; 360,000 tested, 0.14% active; AID 652163;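 active means mean inhibition of at least 70% across replicates, with every replicate also reaching that level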
#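 incubation = readout 5 min after mixing, signal stable up to 60 min | system = S100A4 monomer protein | buffer or medium = HEPES pH 7.2 with CaCl2, KCl, NaCl, DTT, Triton | benchmarks = neutral control DMSO, positive control TFP | also added = fluorescent myosin IIA peptide, 5 nM | compound dosing = one concentration per compound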
# MLL AF4-AF9 inh = blocks AF4 peptide binding to human AF9; AlphaScreen, biotin-AF4 peptide binding to FLAG-AF9; inhibition, % at 10 µM; 350,000 tested, 0.47% active; AID 651704;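 active means every replicate reaching a set inhibition limit, whatever the replicate mean, cut at about 25% in these data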;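 further: 0% = plate neutral control median and 100% = total signal loss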
# ERAP1 HTS inh = blocks human ERAP1 aminopeptidase activity; Q9NZ08; inhibition, % at 10.7 µM; recombinant ERAP1, Leu-AMC fluorescence, 60 min; 340,000 tested, 0.15% active;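 active means mean replicate inhibition of at least 30%, or all replicates individually reaching that 30% level; inactive means mean below 30% and not every replicate reaching it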;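 further: 0% = neutral control wells and 100% = L-leucinethiol positive control wells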
# Numbers without * were called inactive; . = no result given.
# Abbreviations – A = Yeast UUG start; B = E-sel inducer; C = ARNT-TACC3 inh; D = S100A4 inh HTS; E = MLL AF4-AF9 inh; F = ERAP1 HTS inh
Compound: C[C@H](CO)N1C[C@H](C)[C@@H](CN(C)Cc2ccc(C(F)(F)F)cc2)OCCCC[C@H](C)Oc2ccc(N(C)C)cc2C1=O
  A: -0.7 | B: 1.4 | C: 10.1 | D: 10.4 | E: 21.7 | F: 1.2
Compound: C[C@@H]1CN([C@@H](C)CO)C(=O)c2cc(N(C)C)ccc2O[C@@H](C)CCCCO[C@H]1CN(C)Cc1ccc(C(F)(F)F)cc1
  A: -2.1 | B: -0.5 | C: 26.1 | D: -19.7 | E: 37.5* | F: 6.0
Compound: C[C@@H]1CN([C@H](C)CO)C(=O)c2cc(N(C)C)ccc2O[C@@H](C)CCCCO[C@H]1CN(C)Cc1ccc(C(F)(F)F)cc1
  A: 2.9 | B: -0.6 | C: 13.7 | D: 5.8 | E: 32.8* | F: -1.1
Compound: C[C@@H]1CN([C@@H](C)CO)C(=O)c2cc(N(C)C)ccc2O[C@@H](C)CCCCO[C@@H]1CN(C)Cc1ccc(C(F)(F)F)cc1
  A: -0.4 | B: 0.2 | C: 29.6 | D: 9.6 | E: 39.1* | F: 0.1
Compound: C[C@@H]1CCCCO[C@H](CN(C)Cc2ccc(C(F)(F)F)cc2)[C@@H](C)CN([C@H](C)CO)C(=O)c2cc(N(C)C)ccc2O1
  A: 1.3 | B: 2.0 | C: 5.6 | D: -6.8 | E: 10.8 | F: -0.5
Compound: C[C@@H]1CN([C@H](C)CO)C(=O)c2cc(N(C)C)ccc2O[C@@H](C)CCCCO[C@@H]1CN(C)Cc1ccc(C(F)(F)F)cc1
  A: -1.1 | B: 1.2 | C: 8.6 | D: -5.0 | E: 34.8* | F: 3.5
Compound: O=C(c1cccnc1)N1C[C@H]2[C@@H](c3ccccc31)[C@H](CO)N2CC1CCCC1
  A: 53.1 | B: -0.1 | C: -4.9 | D: 2.3 | E: -3.0 | F: 0.2
Compound: CO[C@@H]1CC[C@H]2CCOc3ccc(C#N)cc3C(=O)N(C)[C@H](C)C(=O)N(C)C[C@H]1O2
  A: . | B: 0.1 | C: 2.4 | D: 7.1 | E: 1.2 | F: -2.2
Compound: COc1ccc(-c2ccc3c(c2)O[C@@H](CN(C)C(C)=O)[C@@H](C)CN([C@H](C)CO)S3(=O)=O)cc1
  A: 17.7 | B: 0.3 | C: -0.5 | D: 8.2 | E: -3.1 | F: 4.6
Compound: O=C(c1ccc(F)cc1)N1[C@@H](CO)[C@@H]2c3ccccc3NC[C@@H]21
  A: -1.8 | B: 0.0 | C: 3.9 | D: -2.5 | E: 2.8 | F: -0.3
Compound: C[C@H](CO)N1C[C@H](C)[C@H](CN(C)Cc2ccc(C(F)(F)F)cc2)OCCCC[C@H](C)Oc2ccc(N(C)C)cc2C1=O
  A: 0.9 | B: 0.0 | C: 10.3 | D: 9.9 | E: 31.8* | F: -0.9
Compound: C/C=C/c1cnc2c(c1)C(=O)N([C@@H](C)CO)C[C@@H](C)[C@H](CN(C)C(=O)Cc1ccccc1)O2
  A: 13.0 | B: 0.0 | C: -18.6 | D: -6.7 | E: -1.6 | F: 0.8
Compound: CO[C@H]1CC[C@H]2CCN(C)C(=O)[C@@H](C)N(C)C(=O)c3cccc(C#N)c3OC[C@@H]1O2
  A: . | B: 0.0 | C: -3.8 | D: -9.0 | E: 1.9 | F: -0.9
Compound: CC(C)(C)c1nnc(N/N=C/c2cc(Br)ccc2O)n(N)c1=O
  A: -33.9 | B: -0.1 | C: 58.3* | D: . | E: . | F: .
Compound: CCc1nnc(N/N=C/c2cc(Br)c(O)cc2O)n1N
  A: -13.7 | B: . | C: 62.7* | D: -0.1 | E: 1.5 | F: 0.5
Compound: NC(=O)N/N=C\c1cc(Br)ccc1O
  A: . | B: . | C: 11.5 | D: 5.9 | E: 2.7 | F: 1.5
Compound: CN(C)CC#Cc1ccc([C@H]2[C@@H](CO)N3CCCCN(CC4CC4)C[C@H]23)cc1
  A: 11.3 | B: -0.4 | C: -2.3 | D: -2.1 | E: 26.1* | F: 2.8
Compound: CN(C)CC#Cc1ccc([C@@H]2[C@H]3CN(CC4CC4)CCCCN3[C@H]2CO)cc1
  A: 9.4 | B: 0.3 | C: 8.2 | D: -7.2 | E: 26.3* | F: 0.4
Compound: CCS(=O)(=O)Nc1ccc2c(c1)C(=O)N(C)C[C@H](OC)[C@@H](C)CN(Cc1ccccn1)[C@H](C)CO2
  A: . | B: 0.1 | C: 7.2 | D: -2.6 | E: -2.6 | F: .
Compound: CCCC(=O)Nc1ccc2c(c1)C(=O)N(C)[C@@H]1CC[C@H](CC(=O)NCCCN(C)C)O[C@@H]1CO2
  A: -16.6 | B: 0.1 | C: -6.5 | D: -9.7 | E: 0.2 | F: -2.2
Compound: CNC[C@H]1Oc2cc(C#CC(C)(C)O)ccc2S(=O)(=O)N([C@H](C)CO)C[C@@H]1C
  A: -29.2 | B: . | C: -2.0 | D: -9.4 | E: -1.4 | F: 2.9
Compound: Cc1ccc2[nH]c3nc(NN)nnc3c2c1
  A: -24.0 | B: . | C: 60.7* | D: -10.2 | E: -4.8 | F: 1.1
Compound: Cc1ccc2[nH]c3nc(SCCN4CCOCC4)nnc3c2c1
  A: -22.9 | B: . | C: 2.9 | D: . | E: . | F: .
Compound: O=C(Nc1ccc2c(c1)[C@H]1C[C@@H](CC(=O)N3CCc4ccccc4C3)O[C@H](CO)[C@H]1O2)C1CCC1
  A: -0.8 | B: -0.3 | C: -5.5 | D: -1.2 | E: 1.5 | F: 0.0
Compound: CCCN(C)C[C@@H]1OCCCC[C@@H](C)Oc2ccc(NC(=O)CCC(F)(F)F)cc2C(=O)N([C@@H](C)CO)C[C@@H]1C
  A: 4.2 | B: 0.0 | C: -1.1 | D: -12.3 | E: -0.2 | F: -1.0
Compound: CN(C)S(=O)(=O)c1ccc(Cl)c(C(=O)Nc2nc3ccccc3[nH]2)c1
  A: -4.4 | B: 30.2* | C: 13.7 | D: 6.2 | E: 1.5 | F: -0.6
Compound: Cn1c(NC(=O)C2CC2)cc(=O)n(C)c1=O
  A: -23.4 | B: 0.1 | C: -3.2 | D: -11.9 | E: 48.9* | F: -1.0
Compound: CO[C@@H]1CC[C@H]2CCOc3c(C#N)cccc3C(=O)N(C)C[C@H](C)C(=O)N(C)C[C@H]1O2
  A: . | B: 0.0 | C: -6.1 | D: 122.4* | E: -10.3 | F: 0.3
Compound: CO[C@@H]1CC[C@H]2CCOc3c(C#N)cccc3C(=O)N(C)C[C@@H](c3ccccc3)CC(=O)N(C)C[C@H]1O2
  A: . | B: -0.1 | C: 1.7 | D: 16.4 | E: -11.4 | F: 1.6
Compound: CO[C@H]1CC[C@H]2CCOc3c(C#N)cccc3C(=O)N(C)C[C@@H](C)C(=O)N(C)C[C@H]1O2
  A: . | B: 0.0 | C: -0.8 | D: 15.9 | E: -7.9 | F: 1.6

# By substructure, the compounds so far with bromine
# Abbreviations – A = Yeast UUG start; B = E-sel inducer; C = ARNT-TACC3 inh; D = S100A4 inh HTS; E = MLL AF4-AF9 inh; F = ERAP1 HTS inh
Compound: CC(C)(C)c1nnc(N/N=C/c2cc(Br)ccc2O)n(N)c1=O
  A: -33.9 | B: -0.1 | C: 58.3* | D: . | E: . | F: .
Compound: CCc1nnc(N/N=C/c2cc(Br)c(O)cc2O)n1N
  A: -13.7 | B: . | C: 62.7* | D: -0.1 | E: 1.5 | F: 0.5
Compound: NC(=O)N/N=C\c1cc(Br)ccc1O
  A: . | B: . | C: 11.5 | D: 5.9 | E: 2.7 | F: 1.5

# Other records follow:
# Abbreviations – A = Yeast UUG start; B = E-sel inducer; C = ARNT-TACC3 inh; D = S100A4 inh HTS; E = MLL AF4-AF9 inh; F = ERAP1 HTS inh
Compound: CO[C@H]1CC[C@H]2CCOc3c(C#N)cccc3C(=O)N(C)C[C@H](c3ccccc3)CC(=O)N(C)C[C@H]1O2
  A: . | B: 0.4 | C: 13.7 | D: 120.8* | E: -2.2 | F: 0.7
Compound: O=C(C1CCCC1)N1CC2(C1)[C@H](c1ccccc1)[C@@H](CO)N2C(=O)NC1CCCC1
  A: . | B: 0.1 | C: . | D: -0.7 | E: 1.1 | F: 1.3
Compound: O=C(O)c1ccccc1-c1ccc(/C=C/c2cc(C(F)(F)F)[nH]c(=O)n2)o1
  A: . | B: 28.2* | C: -1.6 | D: -21.7 | E: -1.1 | F: 18.7
Compound: CN1CCN(NC(=S)Nc2ccc(Oc3ccccc3)cc2)CC1
  A: . | B: 223.1* | C: . | D: -2.0 | E: 2.7 | F: 0.3
Compound: CNC[C@H](CC1CCCCC1)NC[C@H](Cc1ccccc1)NCCC12CC3CC(CC(C3)C1)C2
  A: -2.6 | B: 0.7 | C: 22.2 | D: 1.0 | E: 39.9* | F: 7.5
Compound: O=C(Cc1cccnc1)N[C@@H]1CC[C@@H](CCn2cc(-c3ccccc3F)nn2)O[C@H]1CO
  A: -2.2 | B: 0.1 | C: 8.5 | D: -0.6 | E: -6.2 | F: 0.7
Compound: C[C@@H]1CN([C@H](C)CO)C(=O)c2cccc(NS(=O)(=O)c3cn(C)cn3)c2O[C@H]1CN(C)C(=O)Nc1ccc(C(F)(F)F)cc1
  A: -8.7 | B: 0.1 | C: -7.7 | D: -0.3 | E: -3.1 | F: 0.5
Compound: O=C(NCC[C@H]1CC[C@@H](NS(=O)(=O)c2ccc(F)cc2)[C@@H](CO)O1)Nc1ccc(Cl)cc1
  A: 25.5 | B: -0.1 | C: 6.4 | D: -5.8 | E: 7.1 | F: 3.0
Compound: O=C(NCC[C@H]1CC[C@H](NS(=O)(=O)c2ccc(Cl)cc2)[C@@H](CO)O1)Nc1ccc(F)cc1
  A: . | B: -0.5 | C: . | D: 1.7 | E: 26.7* | F: 4.2

# From PubChem BioAssay
